## Experimental melting point values from OPERA 2.9

The melting point is given in degrees Celsius. "–" marks a cell with nothing listed here.

compound	name	mp (°C)
C=CC(=O)OCCCCCCc1ccc(OC(=O)[C@H]2CC[C@H](C(=O)Oc3ccc(CCCCCCOC(=O)C=C)cc3)CC2)cc1	–	85.6
c1csc(CNc2cc[nH]n2)c1	N-(2-Thienylmethyl)-1H-pyrazol-3-amine	-14.1
c1csc(-c2nn[nH]n2)c1	5-(Thiophen-2-yl)-2H-tetrazole	202
CCCCCCCCC1OC1CCCCCCCC(=O)OCC(COC(C)=O)OC(C)=O (configuration not stated)	–	-1
Nc1ncc(-c2ccccc2)s1	5-Phenylthiazol-2-amine	199
COCc1ccc(C=O)o1	2-Furancarboxaldehyde, 5-(methoxymethyl)-	-17.07
Cc1nn(-c2ccc(F)cc2)c(C)c1C=O	1-(4-fluorophenyl)-3,5-dimethyl-1H-pyrazole-4-carbaldehyde	129
C=CCCCCCCCCC(=O)N(CCO)CCO	Undecylenamide DEA	-38
Cc1c(C)n(Cc2ccccc2)c2ncnc(N)c12	7-benzyl-5,6-dimethyl-7H-pyrrolo[2,3-d]pyrimidin-4-amine	176
COC(=O)c1ccc2c(c1)CCN2	Methyl 2,3-dihydro-1H-indole-5-carboxylate	75
NNC(=O)Cc1cccs1	2-(2-thienyl)acetohydrazide	65
Cc1nc(N)oc1C	4,5-Dimethyloxazol-2-amine	65
Fc1cccc(C(F)(F)F)n1	2-Fluoro-6-(trifluoromethyl)pyridine	-15.2
O[C@@H]([C@H](O)[C@H](O)CBr)[C@H](O)CBr	Dibromomannitol	176.9
O=C(O)c1cc2c(s1)-c1ccccc1OC2	4H-thieno[3,2-c]chromene-2-carboxylic acid	237
CC(Cl)C(Cl)(Cl)C(O)N=C(O)CCl (configuration not stated)	2-Chloro-N-(2,2,3-trichloro-1-hydroxybutyl)ethanimidic acid	-7.8
Cc1ccc(C(=O)N(NC(=O)c2ccccc2)C(C)(C)C)cc1	N'-Benzoyl-4-methyl-N-(2-methyl-2-propanyl)benzohydrazide	188
C=C(C)C(=O)OCCC(F)(F)C(F)(F)C(F)(F)C(F)(F)C(F)(F)C(F)(F)F	3,3,4,4,5,5,6,6,7,7,8,8,8-Tridecafluorooctyl methacrylate	-37
Clc1ccc(Oc2cc(Cl)c(Cl)c(Cl)c2Cl)cc1Cl	–	135
CCOC(=O)c1[nH]c2c(c1C)C(=O)CCC2	–	160
O=C1CSCc2ccccc21	Isothiochromanone	57
O=C(OC[C@H]1O[C@@](COC(=O)c2ccccc2)(O[C@H]2O[C@H](COC(=O)c3ccccc3)[C@@H](OC(=O)c3ccccc3)[C@H](OC(=O)c3ccccc3)[C@H]2OC(=O)c2ccccc2)[C@@H](OC(=O)c2ccccc2)[C@@H]1OC(=O)c1ccccc1)c1ccccc1	Sucrose octabenzoate	73.4
O=C(O)CCc1cnn(-c2ccccc2)c1	3-(1-phenyl-1H-pyrazol-4-yl)propanoic acid	84.5
C[C@]1(COC(=O)C2CC2)[C@@H]2C[C@H](O)[C@@]3(C)Oc4cc(-c5cccnc5)oc(=O)c4[C@H](O)[C@@H]3[C@@]2(C)CC[C@@H]1OC(=O)C1CC1	Afidopyropen	150
CCOc1ccc(C2(C)N=C(O)N=C2O)cc1 (configuration not stated)	4-(4-Ethoxyphenyl)-4-methyl-4H-imidazole-2,5-diol	191
O=Cc1cnn(-c2ccc(Br)cc2)c1	1-(4-bromophenyl)-1H-pyrazole-4-carbaldehyde	125
Cc1ccc2cc(C(=O)O)[nH]c2c1	6-Methyl-1H-indole-2-carboxylic acid	210
CN(C)c1ccc(Cn2nccc2N)cc1	1-{[4-(Dimethylamino)phenyl]methyl}-1H-pyrazol-5-amine	61
S=c1[nH]nc(NCCc2ccccc2)s1	5-[(2-phenylethyl)amino]-1,3,4-thiadiazole-2-thiol	144
Cn1ccnc1C(=O)c1ccc(N)cc1	(4-aminophenyl)(1-methyl-1H-imidazol-2-yl)methanone	71
CCCCc1oc2ccc(NS(C)(=O)=O)cc2c1C(=O)c1ccc(OCCCN(CCCC)CCCC)cc1	Dronedarone	151
CC(=O)c1ccc(S(=O)(=O)N2CCOCC2)cc1	1-[4-(Morpholine-4-sulfonyl)phenyl]ethan-1-one	162
O=C(O)c1csc(-c2ccc(F)cc2)n1	2-(4-Fluorophenyl)-1,3-thiazole-4-carboxylic acid	197
CC(=O)[O-].CCCCCCCCCCCC[n+]1c(C)cc(N)c2ccccc21	Laurolinium acetate	170
COc1c(O)c(Cl)c(Cl)c(Cl)c1Cl	–	122
Nc1nc(-c2ccco2)cs1	4-(Furan-2-yl)-1,3-thiazol-2-amine	110

Excerpt, the opening 4 entries:

{"smiles": "C=CC(=O)OCCCCCCc1ccc(OC(=O)[C@H]2CC[C@H](C(=O)Oc3ccc(CCCCCCOC(=O)C=C)cc3)CC2)cc1", "mp (°C)": "85.6"}
{"smiles": "c1csc(CNc2cc[nH]n2)c1", "name": "N-(2-Thienylmethyl)-1H-pyrazol-3-amine", "mp (°C)": "-14.1"}
{"smiles": "c1csc(-c2nn[nH]n2)c1", "name": "5-(Thiophen-2-yl)-2H-tetrazole", "mp (°C)": "202"}
{"smiles": "CCCCCCCCC1OC1CCCCCCCC(=O)OCC(COC(C)=O)OC(C)=O", "stereo": "configuration not stated", "mp (°C)": "-1"}

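The OPERA project collected these measurements from public sources as training and test data for property models. A listed value is a point estimate from one report or more. Conditions of the individual experiments are not part of the data. A value may pool stereoisomers or salt forms, and the file does not say which form was measured. Unmarked limits or estimates from the upstream databases cannot be ruled out.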

Data: OPERA 2.9 data sets, kmansouri/OPERA on GitHub.